Reference: ChEMBL document CHEMBL3259614, “Design, synthesis, and structure-activity relationship studies of novel fused heterocycles-linked triazoles with good activity and water solubility” (J Med Chem, 2014)

Columns and labels:
Hepatocyte = experiment: Cytotoxicity against rat hepatocytes assessed as reduction in survival rate at 5 to 40 uM after 48 hrs by SRB assay; assay type: cell-based
Candida albicans [1] = experiment: Ratio of fluconazole MIC to compound MIC for fluconazole-resistant Candida albicans 103 after 24 hrs by serial dilution method; assay type: functional
Candida albicans [2] = experiment: Ratio of fluconazole MIC to compound MIC for fluconazole-resistant Candida albicans 100 after 24 hrs by serial dilution method; assay type: functional
Candida albicans [3] = experiment: Ratio of fluconazole MIC to compound MIC for fluconazole-resistant Candida albicans J18 after 24 hrs by serial dilution method; assay type: functional

With `C[C@@H](N1CCn2nc(-c3ccc(C#N)nc3)nc2C1)[C@](O)(Cn1cncn1)c1ccc(F)cc1F` the Activity (Hepatocyte) was “Non-toxic”, the Ratio (Candida albicans [1]) was 16 and the Ratio (Candida albicans [2]) was 16. It also gave a Ratio (Candida albicans [3]) of 16.
